The values below come from PMC5842505, “Allosteric Inhibition of Serotonin 5-HT7 Receptors by Zinc Ions” (Molecular Neurobiology, 2017).

By UniProt entry, the sequences of proteins in these tests, tags left out. Residues count along the entry.
UniProt P34969, 1-432 limits assumed: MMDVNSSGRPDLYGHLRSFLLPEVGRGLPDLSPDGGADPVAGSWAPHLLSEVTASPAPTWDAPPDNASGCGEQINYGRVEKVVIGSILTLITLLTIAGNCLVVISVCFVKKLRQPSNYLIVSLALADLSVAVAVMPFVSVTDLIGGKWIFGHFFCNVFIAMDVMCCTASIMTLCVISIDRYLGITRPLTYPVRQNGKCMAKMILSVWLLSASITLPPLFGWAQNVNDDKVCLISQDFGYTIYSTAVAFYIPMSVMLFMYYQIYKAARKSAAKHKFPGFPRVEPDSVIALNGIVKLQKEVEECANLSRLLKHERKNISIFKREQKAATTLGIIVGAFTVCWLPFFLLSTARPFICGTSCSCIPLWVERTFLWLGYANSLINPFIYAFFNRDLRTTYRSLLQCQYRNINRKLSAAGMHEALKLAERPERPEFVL

Where two headings read alike, the source gives them in different places.

Holding throughout (parameters): The full-length human 5-HT7b receptor complementary DNA (cDNA)
The target in assay [1] is T1, human 5-HT7 receptor (Homo sapiens, UniProt P34969). Briefly: Dissociation rate kinetic assay. It counts as binding. The following applies: Zn2+ 0 μM; 37 °C; dissociation induced by 10 μM 5-HT.
The target of assay [2] is T1, human 5-HT7 receptor. Briefly: Saturation radioligand binding in the absence and presence of Zn2+. The method, then:
HEK293 cells stably expressing the human 5-HT7b receptor were grown in Dulbecco’s Modified Eagle’s Medium (DMEM) (Lonza, Basel, Switzerland) supplemented with 10% dialyzed fetal bovine serum (FBS) (Lonza) and 500 μg/ml G418 sulfate (Sigma-Aldrich) at 37 °C in a humidified atmosphere with 5% CO2. For the membrane preparations, the cells were sub-cultured in 150-cm^2 flasks, grown to 90% confluence, washed twice with phosphate-buffered saline (PBS) pre-warmed to 37 °C, and pelleted by centrifugation (200×g for 5 min) in PBS containing 0.1 mM ethylenediaminetetraacetic acid (EDTA) and 1 mM dithiothreitol (DTT). Prior to the membrane preparation, the pellets were frozen at −80 °C. For the functional experiments, the cells were sub-cultured in 75-cm^2 flasks, grown to 90% confluence, washed twice with PBS pre-warmed to 37 °C, and pelleted by centrifugation (180×g) in PBS containing 0.5 mM EDTA. The supernatant was aspirated, and the cell pellet was resuspended in stimulation buffer (1× HBSS, 5 mM HEPES, 0.5 mM IBMX, 0.1% BSA).
Cell pellets were thawed and homogenized in 10 volumes of 50 mM Tris–HCl buffer (pH 7.7) containing 0.1 mM EDTA, using an Ultra Turrax tissue homogenizer. The pellets were centrifuged twice at 35,000×g for 20 min at 4 °C, with 15-min incubation at 37 °C between centrifugations. The pellets were then resuspended in the incubation buffer as described below for the radioligand binding assays. The membrane protein concentrations were determined using the Pierce™ Coomassie (Bradford) Protein Assay Kit (Thermo Fisher Scientific, Waltham, USA), with bovine serum albumin (BSA) as the standard.
Data from the saturation (K D), competition binding (K i), and kinetic experiments (koff/offobs) were fitted to a one- or two-site model, and the models were compared using an F test (extra sum-of-squares test).

The target of assay [3] is T1, human 5-HT7 receptor. The following applies: reported in earlier publications; cited from earlier work.

On to [^3H]mesulergine, for which the Dissociation rate koff at human 5-HT7 receptor [1] turned out to be 0.000983 ± 0.000583 s⁻¹. Besides, the Bmax is listed as 91.2 ± 10.0 pM/mg at human 5-HT7 receptor [2] (Zn2+ 0 μM); 76.4 ± 12.1 pM/mg on human 5-HT7 receptor [2] (Zn2+ 10 μM); 72.2 ± 9.4 pM/mg at human 5-HT7 receptor [2] (Zn2+ 100 μM); 116.7 ± 24.8 pM/mg at human 5-HT7 receptor [2] (Zn2+ 200 μM); 105.6 ± 13.9 pM/mg on human 5-HT7 receptor [2] (Zn2+ 500 μM). In addition, the Kd on human 5-HT7 receptor [2] (Zn2+ 0 μM, HEK293 membranes, 37 °C, 60 min) is 9.6 ± 0.8 nM; on human 5-HT7 receptor [3], 6.2 nM. In addition, at human 5-HT7 receptor [2] (absence of zinc), the “Bmax (receptors labeled)” value is reported as 91.2 pmol/mg of protein.
